Assay results from patent US12091425B2 (AMGEN INC., priority 2016, dated 2024).
Where two headings read alike, the source gives them in different places.

Sequences of proteins named here, by UniProt entry; tags and fusion partners are left off. Residues count along the entry.
UniProt Q07820, 171-327 limits assumed: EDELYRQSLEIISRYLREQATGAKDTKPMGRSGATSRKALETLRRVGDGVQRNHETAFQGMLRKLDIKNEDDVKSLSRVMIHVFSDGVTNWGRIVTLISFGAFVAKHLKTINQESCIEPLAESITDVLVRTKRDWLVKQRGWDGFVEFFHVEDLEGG

Key:
[1] = molecular target: Mcl-1/Bim interaction, recombinant human Mcl-1 (171-327) (Homo sapiens, UniProt Q07820); assay: Cell free Mcl-1: Bim Affinity Assay (Mcl-1 HTRF); assay type: binding; conditions: read-out: Mcl-1 HTRF
[2] = test system: OPM-2 human multiple myeloma cell line; assay: Cell Viability Assay (OPM-2 10 FBS); assay type: cell-based; conditions: read-out: OPM-2 10% FBS, OPM-2 cells, 16 h, CellTiter-Glo
[3] = cell free Mcl-1:Bim TR-FRET, recombinant human Mcl-1 (171-327)
[4] = TR-FRET, 0.1 nM Mcl-1 (171-327), 0.05 nM biotin-Bim (51-76)

Row | IC50 [1, 3] [µM] | SMILES | IC50 [2] [µM] | IC50 [1, 4] [µM]
1 | 0.00248 | CC1COC2CC1OCCS(=O)(=O)NC(=O)c1ccc3c(c1)N(C[C@@H]1CC[C@@H]21)C[C@@]1(CCCc2cc(Cl)ccc21)CO3 (single isomer, unassigned) | 5.83 | –
2 | – | CO[C@H]1/C=C/C[C@H](C(C)O)[C@@H](C)S(=O)(=O)NC(=O)c2ccc3c(c2)N(C[C@@H]2CC[C@H]21)C[C@@]1(CCCc2cc(Cl)ccc21)CO3 (single isomer, unassigned) [Example 3] | 0.461 | 0.000518
3 | – | CO[C@H]1/C=C/C[C@H](C(C)O)[C@@H](C)S(=O)(=O)NC(=O)c2ccc3c(c2)N(C[C@@H]2CC[C@H]21)C[C@@]1(CCCc2cc(Cl)ccc21)CO3 (single isomer, unassigned) [Example 4] | 0.298 | 0.00109
4 | – | O=C1NS(=O)(=O)N(CC2CCO2)CC/C=C/[C@H](O)[C@@H]2CC[C@H]2CN2C[C@@]3(CCCc4cc(Cl)ccc43)COc3ccc1cc32 (single isomer, unassigned) [Example 38] | 0.78 | 0.000549
5 | – | O=C1NS(=O)(=O)N(CC2CCO2)CC/C=C/[C@H](O)[C@@H]2CC[C@H]2CN2C[C@@]3(CCCc4cc(Cl)ccc43)COc3ccc1cc32 (single isomer, unassigned) [Example 39] | 0.873 | 0.00065
6 | – | O=C1NS(=O)(=O)C(CC2CC2)CCC=C[C@H](O)[C@@H]2CC[C@H]2CN2C[C@@]3(CCCc4cc(Cl)ccc43)COc3ccc1cc32 (single isomer, unassigned) [Example 158] | 9.36 | 0.0076
7 | – | O=C1NS(=O)(=O)C(CC2CC2)CCC=C[C@H](O)[C@@H]2CC[C@H]2CN2C[C@@]3(CCCc4cc(Cl)ccc43)COc3ccc1cc32 (single isomer, unassigned) [Example 159] | 3.31 | 0.00266
8 | – | C[C@H]1C/C=C/[C@H](O)[C@@H]2CC[C@H]2CN2C[C@@]3(CCCc4cc(Cl)ccc43)COc3ccc(cc32)C(=O)NS(=O)(=O)C1CC1CCCO1 (single isomer, unassigned) [Example 167] | 0.122 | 0.000251
9 | – | C[C@H]1C/C=C/[C@H](O)[C@@H]2CC[C@H]2CN2C[C@@]3(CCCc4cc(Cl)ccc43)COc3ccc(cc32)C(=O)NS(=O)(=O)C1CC1CCCO1 (single isomer, unassigned) [Example 168] | 0.107 | 0.000255
10 | – | CC1C/C=C/[C@H](O)[C@@H]2CC[C@H]2CN2C[C@@]3(CCCc4cc(Cl)ccc43)COc3ccc(cc32)C(=O)NS(=O)(=O)C1CC1CCOCC1 (single isomer, unassigned) [Example 188] | 3.9 | 0.0114
11 | – | CC1C/C=C/[C@H](O)[C@@H]2CC[C@H]2CN2C[C@@]3(CCCc4cc(Cl)ccc43)COc3ccc(cc32)C(=O)NS(=O)(=O)C1CC1CCOCC1 (single isomer, unassigned) [Example 189] | 1.21 | 0.00348
12 | – | CC1C/C=C\[C@@H](O)[C@@H]2CC[C@H]2CN2C[C@@]3(CCCc4cc(Cl)ccc43)COc3ccc(cc32)C(=O)NS(=O)(=O)C1 (single isomer, unassigned) [Example 232] | 3.47 | 0.00164
13 | – | CC1C/C=C\[C@@H](O)[C@@H]2CC[C@H]2CN2C[C@@]3(CCCc4cc(Cl)ccc43)COc3ccc(cc32)C(=O)NS(=O)(=O)C1 (single isomer, unassigned) [Example 233] | 4.7 | 0.00466
14 | – | C/C1=C\C(O)[C@@H]2CC[C@H]2CN2C[C@@]3(CCCc4cc(Cl)ccc43)COc3ccc(cc32)C(=O)NS(=O)(=O)CCC1 (single isomer, unassigned) [Example 238] | 17.6 | 0.00157
15 | – | COC(=O)C(C(=O)OC)C1CC(O)[C@@H]2CC[C@H]2CN2C[C@@]3(CCCc4cc(Cl)ccc43)COc3ccc(cc32)C(=O)NS(=O)(=O)[C@H](C)[C@@H](C)C1 (single isomer, unassigned) [Example 244] | 0.41 | 0.00213
16 | – | COC(=O)C(C(=O)OC)C1CC(O)[C@@H]2CC[C@H]2CN2C[C@@]3(CCCc4cc(Cl)ccc43)COc3ccc(cc32)C(=O)NS(=O)(=O)[C@H](C)[C@@H](C)C1 (single isomer, unassigned) [Example 245] | 6.1 | 0.012
17 | – | C[C@@H]1[C@@H](C)CC(N(C)C)CC(O)[C@@H]2CC[C@H]2CN2C[C@@]3(CCCc4cc(Cl)ccc43)COc3ccc(cc32)C(=O)NS1(=O)=O (single isomer, unassigned) [Example 247] | 31.2 | 0.0129
18 | – | CNC1CC(O)[C@@H]2CC[C@H]2CN2C[C@@]3(CCCc4cc(Cl)ccc43)COc3ccc(cc32)C(=O)NS(=O)(=O)[C@H](C)[C@@H](C)C1 (single isomer, unassigned) [Example 256] | 27.8 | 0.00558
19 | – | CNC1CC(O)[C@@H]2CC[C@H]2CN2C[C@@]3(CCCc4cc(Cl)ccc43)COc3ccc(cc32)C(=O)NS(=O)(=O)[C@H](C)[C@@H](C)C1 (single isomer, unassigned) [Example 257] | 17.8 | 0.00456
20 | – | CC1CC[C@@H](C)S(=O)(=O)NC(=O)c2ccc3c(c2)N(C[C@@H]2CC[C@H]2C(O)C1)C[C@@]1(CCCc2cc(Cl)ccc21)CO3 (single isomer, unassigned) [Example 262] | 13.9 | 0.0171
21 | – | CC1CC[C@@H](C)S(=O)(=O)NC(=O)c2ccc3c(c2)N(C[C@@H]2CC[C@H]2C(O)C1)C[C@@]1(CCCc2cc(Cl)ccc21)CO3 (single isomer, unassigned) [Example 264] | 31.1 | 0.00537
22 | – | CC1CC[C@H](C)S(=O)(=O)NC(=O)c2ccc3c(c2)N(C[C@@H]2CC[C@H]2C(O)C1)C[C@@]1(CCCc2cc(Cl)ccc21)CO3 (single isomer, unassigned) [Example 265] | 0.0815 | 0.000286
23 | – | CC1CC[C@H](C)S(=O)(=O)NC(=O)c2ccc3c(c2)N(C[C@@H]2CC[C@H]2C(O)C1)C[C@@]1(CCCc2cc(Cl)ccc21)CO3 (single isomer, unassigned) [Example 267] | 1.53 | 0.00404
24 | – | CC1CC(O)[C@@H]2CC[C@H]2CN2C[C@@]3(CCCc4cc(Cl)ccc43)COc3ccc(cc32)C(=O)NS(=O)(=O)C[C@@H](C)C1 (single isomer, unassigned) [Example 268] | 3.62 | 0.0046
25 | – | CC1CC(O)[C@@H]2CC[C@H]2CN2C[C@@]3(CCCc4cc(Cl)ccc43)COc3ccc(cc32)C(=O)NS(=O)(=O)C[C@@H](C)C1 (single isomer, unassigned) [Example 269] | 5.56 | 0.0257
26 | – | CC1CC(O)[C@@H]2CC[C@H]2CN2C[C@@]3(CCCc4cc(Cl)ccc43)COc3ccc(cc32)C(=O)NS(=O)(=O)C[C@@H](C)C1 (single isomer, unassigned) [Example 271] | 20.9 | 0.00489
27 | 0.000541 | CC(C)CC1CC(C)/C=C/[C@H](O)[C@@H]2CC[C@H]2CN2C[C@@]3(CCCc4cc(Cl)ccc43)COc3ccc(cc32)C(=O)NS1(=O)=O (single isomer, unassigned) [Example 481] | 1.87 | –
28 | 0.0202 | CC(C)CC1CC(C)/C=C/[C@H](O)[C@@H]2CC[C@H]2CN2C[C@@]3(CCCc4cc(Cl)ccc43)COc3ccc(cc32)C(=O)NS1(=O)=O (single isomer, unassigned) [Example 483] | 12 | –

Row | SMILES | IC50 [1, 3] [µM] | IC50 [2] [µM] | IC50 [1, 4] [µM]
29 | CO[C@H]1/C=C/CC(O)C(C)S(=O)(=O)NC(=O)c2ccc3c(c2)N(C[C@@H]2CC[C@H]21)C[C@@]1(CCCc2cc(Cl)ccc21)CO3 (single isomer, unassigned) | 0.00146 | 1.82 | –
